Assay results as given in patent US20050003431A1, “Monovalent, multivalent, and multimeric MHC binding domain fusion proteins and conjugates, and uses therefor” (priority 1996, published 2005).

Experiments:
[1] = test system: control T cell clones (HY.1B11, Go.P3, Kw-TTI); assay: FACS staining of control T cell clones with DR2/peptide complexes on streptavidin fluorescent microbeads; format: cell-based, human
From the text: (§1) DR2-biotin tag molecules were used to generate highly multimeric MHC binding domain conjugates for the specific staining of antigen specific T cells. […] Polystyrene beads similar in size to viral particles (40 nm) were selected based on their ability to remain soluble; these beads pellet in an ultracentrifuge but not under the low G-forces used to wash cells. Staining of antigen specific T cells was examined by FACS. For FACS staining, biotinylated mAbs specific for CD4 (positive control) and a murine MHC class II (10-2.16) (negative control) were used as controls. Approximately 10^6 T cells were used for each assay. T cells were pelleted and resuspended in cold PBS, 0.1% sodium azide.

[2] = test system: DR2/MBP(85-99) specific T cell clones; assay: FACS staining of T cells with DR2/peptide complexes on streptavidin fluorescent microbeads; format: cell-based, human; conditions: 40 nm streptavidin polystyrene beads, approximately 10^6 T cells
From the text: as §1

B1: multivalent DR2/MBP(85-99) peptide complexes (conjugate)
MHC II alpha: [not shown - about 200 residues]VDGGGGGLTDTLQAETDQLEDEKSALQTEIANLLKEKEKLEFILAAHLGGIFEAMKMELRD
MHC II beta: EGDTRPRFLWQPKRECHFFNGTERVRFLDRYFYNQEESVRFDSDVGEFRAVTELGRPDAEYWNSQKDILEQARAAVDTYCRHNYGVVESFTVQRRVQPKVTVYPSKTQPLQHHNLLVCSVSGFYPGSIEVRWFLNGQEEKAGMVSTGLIQNGDWTFQTLVMLETVPRSGEVYTCQVEHPSVTSPLTVEWRARSESAQSKVDGGGGGRIARLEEKVKTLKAQNSELASTANMLREQVAQLKQKVMNH
peptide: PGSRPHLIRLFSRDA
[1]
  FACS staining of control T cell clones: No staining was observed
[2]
  FACS staining of DR2/MBP(85-99) specific T cell clones: Staining was observed
  staining intensity compared with the CD4 mAb: similar
